2 substances from patent publication US20110250207A1 (OREGON HEALTH AND SCIENCE UNIVERSITY, published 2011) can be followed below.

Series [1] concerns the target fXI with Lys^83 and Gln^84 replaced with alanine (UniProt P03951). In words: cell-based or functional assay.
Series [2] has the same target.

“α-thrombin (from UniProt P00734 328-622) (enzyme)”: the thrombin generation (AUC) in fXI-deficient plasma initiated with α-thrombin in series [1] turned out to be 111 nM.
α-thrombin: in series [2], the “rate of activation in solution relative to fXI^WT” value is “about 10% of the rate for fXI^WT”.
